According to patent publication US9902707B2, “Detergent compositions” (Innospec Limited, priority 2013, dated 2018):

Tested on: Zein
Conditions: 1% surfactant solution; qualitative comparison with commercial personal care surfactants

LAUROYL THIAMINE
Irritancy/mildness: milder than many commercially available personal care surfactants including Sodium Laureth Sulfate (3EO) [SLES]
